Literature values in patent publication US20160378912A1, “STRUCTURE-BASED MODELING AND TARGET-SELECTIVITY PREDICTION” (EPIGENETX, LLC, priority 2013, published 2016).

Protein sequences, listed by entry. Tags and fused reporters are not part of them.
UniProt Q13547, whole entry: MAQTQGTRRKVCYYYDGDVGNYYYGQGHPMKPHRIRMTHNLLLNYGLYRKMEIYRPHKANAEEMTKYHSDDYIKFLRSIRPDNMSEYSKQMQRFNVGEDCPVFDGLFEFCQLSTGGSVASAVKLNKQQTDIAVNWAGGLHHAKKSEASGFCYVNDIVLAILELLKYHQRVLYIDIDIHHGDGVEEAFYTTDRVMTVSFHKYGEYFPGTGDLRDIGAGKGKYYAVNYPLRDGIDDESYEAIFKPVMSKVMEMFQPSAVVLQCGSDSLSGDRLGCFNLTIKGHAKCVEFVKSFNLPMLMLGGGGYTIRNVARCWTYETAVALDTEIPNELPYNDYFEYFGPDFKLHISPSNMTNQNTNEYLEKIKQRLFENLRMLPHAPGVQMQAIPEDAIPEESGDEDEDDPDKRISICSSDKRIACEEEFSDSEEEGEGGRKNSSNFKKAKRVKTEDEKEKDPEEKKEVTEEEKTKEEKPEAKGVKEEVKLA
UniProt Q92769, whole entry: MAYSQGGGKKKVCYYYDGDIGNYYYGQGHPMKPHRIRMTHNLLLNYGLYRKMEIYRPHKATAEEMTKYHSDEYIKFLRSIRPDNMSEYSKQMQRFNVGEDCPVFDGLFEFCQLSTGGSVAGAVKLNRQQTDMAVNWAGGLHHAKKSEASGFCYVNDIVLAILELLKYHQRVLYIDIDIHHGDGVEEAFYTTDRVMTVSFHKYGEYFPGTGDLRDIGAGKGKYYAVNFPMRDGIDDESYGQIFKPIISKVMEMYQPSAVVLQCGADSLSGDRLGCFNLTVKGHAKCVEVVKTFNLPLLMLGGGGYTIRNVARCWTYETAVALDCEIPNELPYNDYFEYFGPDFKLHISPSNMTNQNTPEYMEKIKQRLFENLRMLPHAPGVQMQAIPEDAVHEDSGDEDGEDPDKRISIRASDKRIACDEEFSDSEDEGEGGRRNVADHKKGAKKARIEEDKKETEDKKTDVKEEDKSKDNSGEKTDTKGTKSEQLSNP

Experiments:
HDAC1 = HDAC1 (Homo sapiens, UniProt Q13547); details: cited from earlier work
HDAC2 = HDAC2 (Homo sapiens, UniProt Q92769); details: cited from earlier work

In the case of Largazolethiol, the “Exp. pIC50” value (HDAC1) is listed as 8.92, the IC50 (HDAC1; read-out: IC50) is listed as 1.2 nM and the “Exp. pIC50” value (HDAC2) is listed as 8.46. The IC50 (HDAC2) was 3.5 nM.

In the case of Oxamflatin, the pIC50exp (HDAC1; HDAC1, experimental value of modeled complex) is listed as 7.301, the pIC50 (HDAC1; HDAC1, training set composition) is listed as 7.30 and the IC50 (HDAC1; HDAC1, training set, read-out: HDACs inhibitory activities IC50) is listed as 50 nM.

Where two headings read alike, the source gives them in different places.
